Our source for the IC50 values is US11180487B2, “Substituted cyanoindoline derivatives as NIK inhibitors” (Janssen Pharmaceutica NV, priority 2016, dated 2021).

The chains behind the UniProt entries cited, without tags or fusion partners.
UniProt Q99558, whole entry: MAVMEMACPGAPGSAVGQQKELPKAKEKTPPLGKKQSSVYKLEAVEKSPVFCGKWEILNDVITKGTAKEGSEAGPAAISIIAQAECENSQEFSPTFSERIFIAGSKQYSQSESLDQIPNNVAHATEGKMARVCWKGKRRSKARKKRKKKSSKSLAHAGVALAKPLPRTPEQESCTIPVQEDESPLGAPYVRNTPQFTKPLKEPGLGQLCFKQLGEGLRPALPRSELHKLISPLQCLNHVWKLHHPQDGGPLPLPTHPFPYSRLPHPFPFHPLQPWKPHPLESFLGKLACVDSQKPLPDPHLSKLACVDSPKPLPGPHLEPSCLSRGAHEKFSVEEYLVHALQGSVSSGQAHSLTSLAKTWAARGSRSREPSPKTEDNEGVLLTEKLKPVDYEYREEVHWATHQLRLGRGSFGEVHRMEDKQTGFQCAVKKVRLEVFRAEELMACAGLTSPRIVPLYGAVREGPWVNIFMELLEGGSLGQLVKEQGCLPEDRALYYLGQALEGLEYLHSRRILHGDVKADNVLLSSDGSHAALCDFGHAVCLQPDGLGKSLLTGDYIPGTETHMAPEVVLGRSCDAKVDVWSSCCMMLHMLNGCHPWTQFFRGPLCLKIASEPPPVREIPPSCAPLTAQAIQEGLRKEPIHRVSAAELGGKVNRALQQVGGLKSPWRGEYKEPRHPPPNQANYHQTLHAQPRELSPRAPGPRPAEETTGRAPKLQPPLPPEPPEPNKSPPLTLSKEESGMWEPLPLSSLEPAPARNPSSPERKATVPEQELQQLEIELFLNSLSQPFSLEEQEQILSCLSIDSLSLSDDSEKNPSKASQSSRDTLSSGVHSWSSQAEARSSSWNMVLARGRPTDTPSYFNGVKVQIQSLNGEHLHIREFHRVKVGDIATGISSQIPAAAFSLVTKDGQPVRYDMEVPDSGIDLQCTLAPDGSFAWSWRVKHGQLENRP

For this experiment, the target named is recombinant human NF-kappaB-inducing kinase (NIK/MAP3K14) (Homo sapiens, UniProt Q99558). The experiment in a line: Inhibition of auto-phosphorylation of recombinant human NIK/MAP3K14 activity (AlphaScreen), Biological Assay A. The settings on record: read-out: Auto-phosphorylation inhibition of NIK (IC50 (nM)), averaged values over all measurements on all batches. The protocol:
Inhibition of Auto-Phosphorylation of Recombinant Human NF-kappaB-Inducing Kinase (NIK/MAP3K14) Activity (AlphaScreen®)
NIK/MAP3K14 auto-phosphorylation activity was measured using the AlphaScreen® (αscreen) format (Perkin Elmer). All compounds tested were dissolved in dimethyl sulfoxide (DMSO) and further dilutions were made in assay buffer. Final DMSO concentration was 1% (v/v) in assays. Assay buffer was 50 mM Tris pH 7.5 containing 1 mM EGTA (ethylene glycol tetraacetic acid), 1 mM DTT (dithiothreitol), 0.1 mM Na3VO4, 5 mM MgCl2, 0.01% Tween® 20. Assays were carried out in 384 well Alphaplates (Perkin Elmer). Incubations consisted of compound, 25 microM Adenosine-5′-triphosphate (ATP), and 0.2 nM NIK/MAP3K14. Incubations were initiated by addition of GST-tagged NIK/MAP3K14 enzyme, carried out for 1 h at 25° C. and terminated by addition of stop buffer containing anti-phospho-IKK Ser176/180 antibody. Protein A Acceptor and Glutathione-Donor beads were added before reading using an EnVision® Multilabel Plate Reader (Perkin Elmer). Signal obtained in the wells containing blank samples was subtracted from all other wells and IC50's were determined by fitting a sigmoidal curve to % inhibition of control versus Log10 compound concentration.

`CNC(=O)c1ccc(OC2CC2)c(Nc2nccc(-c3cc(C#N)c4c(c3)[C@@](C)(CO)CN4)n2)c1`: the IC50 amounted to 4.6 nM.
